Data reported in PubChem BioAssay AID624288 (National Center for Advancing Translational Sciences (NCATS), 2012).
The entries are a selection whose mix differs from that of the whole data set. Inconclusive results are not listed. Active and inactive are the calls of the source. Calls follow the shape of the full dose curve; cell line not stated here.

Experiment: qHTS for Antagonists of gsp, the Etiologic Mutation Responsible for Fibrous Dysplasia/McCune-Albright Syndrome: qHTS; also: nearly all actives have a fitted effect of over 65% in size
Settings: gsp-mutant cells, cAMP HTRF, 30 min; at 76.9 µM (top of the series)
% is scaled to controls: 0 for no effect and ±100 for the full control effect.

Q: Which activity change, negative = inhibition does the source give for `CCC(=O)N(c1ccccc1)C1(COC)CCN(CCc2cccs2)CC1` here?
A: Its activity change, negative = inhibition is inactive: 1.18%.

Q: Which activity change, negative = inhibition does the source give for `CCC(=O)N(c1ccccc1)C1(COC)CCN(CCn2nnn(CC)c2=O)CC1` here?
A: Its activity change, negative = inhibition is inactive: 1.86%.
